Values of other authors as cited in patent publication US6861524B2, “Acyl and sulfonyl derivatives of 6,9-disubstituted 2-(trans-1,4-diaminocyclohexyl)-purines and their use as antiproliferative agents” (Aventis Pharmaceuticals Inc., priority 2000, dated 2005).

System: herpes simplex virus
Conditions: Schang et al. 1998; cited from earlier work

## CCC(CO)Nc1nc(NCc2ccccc2)c2ncn(C(C)C)c2n1 (stereo not shown) [roscovitine, 2-(1-ethyl-2-hydroxyethylamino)-6-benzylamino-9-isopropylpurine]
  replication of herpes simplex virus: inhibited the replication
